EP4831177A1, “CYCLO-HISPRO DERIVATIVE AND USE THEREOF FOR PREVENTING, AMELIORATING OR TREATING FIBROSIS” (dated 2026)

Key:
[1] = tested on: BLM-induced IPF model animals; test: Gene expression in lung tissue (real-time PCR) in BLM-induced IPF model; settings: oral, 25mg/kg (Table 5), CHP vs NOV-JD-1 (Example 9)
Experimental: (§1) Liver tissues were extracted with NucleoZOL according to the manufacturer's (MACHEREY-NAGEL) total RNA isolation protocol, and 1 µg of RNA was subjected to reverse transcription polymerase chain reaction (RT-PCR) using ReverTra Ace qPCR RT Master Mix (Toyobo) to synthesize cDNA. The synthesized cDNA was analyzed by real-time PCR using primer sets of inflammatory cytokines IL-1β and IL-6 genes and fibrotic genes Collagen I, Collagen III and α-SMA and SYBR Green Realtime PCR Master mix (Toyobo). The primers in Table 2 were synthesized by request to Bioneer. Each gene expression value was corrected by dividing it by the expression value of gapdh, which is a housekeeping gene.
C57BL6/J mice were housed in an environment of 23 ± 3°C after introduction, with free access to food and water. After acclimating to the housekeeping environment for 1 week, 0.03 IU/50µL of bleomycin per subject was injected intratracheally using a catheter to induce IPF. The same amount of saline was injected intratracheally to the normal control group. After 1 week, the body weights were measured, and the mice were randomly distributed to have equal average body weights and divided into three groups as shown in Table 4. The normal control group and the disease-induced group were orally administered DW daily for 2 weeks starting from 1 week after bleomycin injection, and the experimental group was orally administered NOV-JD-1 at a concentration of 35 mg/kg for the same period.
The expression levels of the fibrosis genes Fibronectin, Collagen I, Collagen III, and Collagen IV in lung tissue were evaluated using the primers in Table 2 in the same manner as in Example 4-3.
In an animal model of idiopathic pulmonary fibrosis, the same method as in Example 8 was used to compare the anti-fibrosis effects of CHP and NOV-JD-1 synthesized in Example 1.
The expression levels of α-SMA and Vimentin genes, which are fibrosis genes, in lung tissue were evaluated using the primers in Table 2 in the same manner as in Example 4-3. Each gene expression value was corrected by dividing it by the expression values of β-actin and gapdh, which are housekeeping genes.

[2] = tested on: CCl4-induced liver fibrosis/MASH model animals; test: Hydroxyproline level in liver tissue in CCl4-induced liver fibrosis/MASH model; settings: 35 mg/kg oral; for reduction of level of hydroxyproline increased by CCl4: CHP vs NOV-JD-1 (Example 5, FIG. 8)
Experimental: (§2) Nine-week-old male C57BL6/J mice (Daehan Biolink) were housed in an environment of 23 ± 3°C with free access to food (Purina) and water. After acclimating to the breeding environment for 1 week and measuring their body weight, the mice were randomly distributed to have uniform average body weights and divided into three groups as shown in Table 2. To induce liver fibrosis/MASH, 0.2 mL/kg (CCl4:olive oil = 1:19) of carbon tetrachloride (CCl4) per mouse was intraperitoneally injected into the disease-induced and experimental groups on days 0, 2, 5, 7, 9, 12, 14, 16 and 19. Olive oil was injected in the same manner into the normal control group. NOV-JD-1 was orally administered daily at a concentration of 35 mg/kg. The normal control group and disease-induced group were orally administered the same amount of purified water (DW). Mice were euthanized 12 hour after the last CCl4 injection, and blood and liver tissue were collected.
(§3) In the same manner as in Example 4, the anti-fibrotic effects of CHP and NOV-JD-1 synthesized in Example 1 were compared in an animal model in which fibrosis was induced.
The level of hydroxyproline, which is used as an indicator of collagen accumulation due to fibrosis, was measured using a hydroxyproline assay kit (MAK008, Sigma).

[3] = tested on: CCl4-induced liver fibrosis/MASH model animals; test: Fibronectin protein expression in liver tissue (Western blot) in CCl4-induced liver fibrosis/MASH model; settings: 35 mg/kg oral; for reduction of expression of fibronectin protein increased by CCl4: CHP vs NOV-JD-1 (Example 5)
Experimental: as §2, §3
Liver tissue was homogenized with 500 µL of RIPA buffer to which protease and phosphatase inhibitors were added, kept on ice for 15 minutes, and centrifuged at 15,000 rpm at 4°C for 10 minutes. The supernatant was collected to recover the lysate, and the subsequent Western blotting process was performed as in Example 2-3 using fibronectin and Gapdh primary antibodies.

[4] = tested on: MRC5 cells; test: TGF-β-induced fibronectin protein expression in MRC5 cells (Western blot); settings: 10 µM, TGF-β 2 ng/mL, 16 hours (Example 6)
Experimental: 100 uL of RIPA lysis buffer (Thermo) containing protease and phosphatase inhibitors was added to each recovered cell, and the cells were lysed by pipetting. After incubating on ice for 10 minutes, the cells were centrifuged at 15,000 rpm for 10 minutes at 4°C. The supernatants were collected, and the protein concentration was measured by the BCA quantitation method using a BCA protein quantitation kit (Intron), and the same amount of samples was separated for protein using a Bolt^TM protein gel electrophoresis system (Thermo), and transferred to a nitrocellulose membrane. The membrane was blocked with 5% skim milk for 1 hour at room temperature and then reacted with primary antibodies, fibronectin antibody (Abcam), Gapdh antibody (Cell signaling) and vinculin antibody (Cell signaling) at 4°C overnight. After washing three times for 10 minutes each with TBST, it was reacted with secondary antibodies for 1 hour at room temperature. After washing three times for 10 minutes each with TBST, the expression level was measured by reacting with ECL. The density of the bands that appeared was quantified using the ImageJ program, and the fibronectin band density value was corrected by dividing it by the band density value of the loading control group. […]
(§4) The expression of fibrosis proteins was analyzed in the same manner as in Example 2-3.

[5] = tested on: CCl4-induced liver fibrosis/MASH model animals; test: Gene expression in liver tissue (real-time PCR) in CCl4-induced liver fibrosis/MASH model; settings: for reduction of expression of α-SMA gene increased by CCl4: CHP vs NOV-JD-1 (Example 5, FIG. 9); for decrease of gene expression of IL-1β increased by CCl4: CHP vs NOV-JD-1 (Example 5, FIG. 10A); for decrease of gene expression of IL-6 increased by CCl4: CHP vs NOV-JD-1 (Example 5, FIG. 10B)
Experimental: as §2, §1, §3
The expression levels of the fibrosis gene α-SMA and the inflammatory cytokines IL-1β and IL-6 genes were evaluated using the same method as in Example 4-3.

[6] = tested on: CCl4-induced liver fibrosis/MASH model animals; test: Liver function test (blood ALT activity) in CCl4-induced liver fibrosis/MASH model; settings: 35 mg/kg oral daily, mice (Example 4, FIG. 5)
Experimental: as §2
For the liver function test of mice, blood was diluted 1:19 using the dilution buffer of the ALT assay kit (K-753) from Biovision and measured according to the kit protocol.

[7] = tested on: mouse primary lung fibroblasts; test: TGF-β-induced fibrosis protein expression in mouse primary lung fibroblasts (Western blot); settings: for reduction of expression of fibronectin increased by TGF-β: CHP vs NOV-JD-1 at the same concentration (Example 7)
Experimental: (§5) 100 uL of RIPA lysis buffer (Thermo) containing protease and phosphatase inhibitors was added to each recovered cell, and the cells were lysed by pipetting. After incubating on ice for 10 minutes, the cells were centrifuged at 15,000 rpm for 10 minutes at 4°C. The supernatants were collected, and the protein concentration was measured by the BCA quantitation method using a BCA protein quantitation kit (Intron), and the same amount of samples was separated for protein using a Bolt^TM protein gel electrophoresis system (Thermo), and transferred to a nitrocellulose membrane. The membrane was blocked with 5% skim milk for 1 hour at room temperature and then reacted with primary antibodies, fibronectin antibody (Abcam), Gapdh antibody (Cell signaling) and vinculin antibody (Cell signaling) at 4°C overnight. After washing three times for 10 minutes each with TBST, it was reacted with secondary antibodies for 1 hour at room temperature. After washing three times for 10 minutes each with TBST, the expression level was measured by reacting with ECL. The density of the bands that appeared was quantified using the ImageJ program, and the fibronectin band density value was corrected by dividing it by the band density value of the loading control group.
Additionally, to isolate primary lung fibroblasts from mice (Daehan Biolink Co.), the mice were anesthetized with 3% isoflurane, then, laparotomy was performed, the aorta was cut, and 10 mL of PBS was injected into the right ventricle to perfuse and wash the lungs. The lungs were then taken out, washed with cold PBS, and finely ground with a scalpel. The finely ground tissues were dispersed in DMEM medium containing 10% FBS and 1% antibiotics and evenly spread in a 150 mm culture dish. The medium was changed once every two days while culturing in an incubator at 37°C and 5% CO2. On the 6th to 7th day, only the attached cells were isolated and cultured on a new culture dish.
Primary lung fibroblasts isolated from mice were seeded in 6-well plates at a density of 2 × 10^5 cells/well. After 24 hours, the medium was removed, and the negative control group was treated with serum-free medium, and the fibrosis-induced groups were treated with NOV-JD-1 at concentrations of 0 and 25 µM using serum-free medium including TGF-β at a concentration of 5 ng/mL, respectively. After 48 hours, the cells were washed once with cold PBS and recovered using a scraper.
as §4
The anti-fibrotic effects of CHP and NOV-JD-1 synthesized in Example 1 were compared in mouse primary lung fibroblasts induced to undergo fibrosis in the same manner as in Example 6.

[8] = tested on: LX2 cells; test: TGF-β-induced fibronectin protein expression in LX2 cells (Western blot); settings: for decrease of expression of fibronectin increased by TGF-β: TGF-β 2 ng/mL, 24 hours (Example 2, FIG. 1); for reduction of expression of fibronectin increased by TGF-β: comparison CHP vs NOV-JD-1, 25 µM (same concentration) (Example 3, FIG. 3)
Experimental: LX2 cells (Sigma-Aldrich SCC064), which are a human liver cell line, were cultured in DMEM medium (Hyclone) containing 10% FBS (Hyclone) and 1% penicillin/streptomycin antibiotics (Thermo) at 37°C in an incubator with 5% CO2.
LX2 cells were seeded in 6-well plates at a concentration of 2 × 10^5 cells/well. After 24 hours, the cell medium was removed, and the negative control group was treated with serum-free medium, and the fibrosis-inducing groups were treated with NOV-JD-1 synthesized in Example 1 at concentrations of 0, 1, 5 and 25 µM using serum-free medium including TGF-β (R&D systems) at a concentration of 2 ng/mL, respectively. After 24 hours, the cells were washed once with cold PBS and recovered using a scraper.
as §5
(§6) In the same manner as in Example 2, the anti-fibrotic effects of CHP and NOV-JD-1 synthesized in Example 1 were compared in LX2 cells and AML12 cells induced with fibrosis.

[9] = tested on: AML12 cells; test: TGF-β-induced fibronectin protein expression in AML12 cells (Western blot); settings: for reduction of expression of fibronectin increased by TGF-β: comparison CHP vs NOV-JD-1, 10 µM (same concentration) (Example 3, FIG. 4)
Experimental: AML12 cells (ATCC CRL-2254), which are a mouse liver cell line, were cultured in DMEM/F12 medium (Thermo) containing 10% FBS, 1% antibiotics, and ITS (Insulin/Transferrin/Selenium; Thermo) and dexamethasone (Sigma) at 37°C in an incubator with 5% CO2.
AML12 cells were seeded in 6-well plates at a concentration of 2 × 10^5 cells/well. After 24 hours, the cell medium was removed, and the negative control group was treated with serum-free medium, and the fibrosis-inducing groups were treated with NOV-JD-1 synthesized in Example 1 at concentrations of 0 and 10 µM using serum-free medium containing TGF-β at a concentration of 2 ng/mL, respectively. After 16 hours, the cells were washed once with cold PBS and recovered using a scraper.
as §5, §6

[10] = relative to the CHP group (Example 5)
[11] = 35 mg/kg oral daily (Example 4, FIG. 6)
[12] = 35 mg/kg oral daily (Example 4, FIG. 7)

## [2H]c1nc(C[C@@H]2NC(=O)[C@@H]3CCCN3C2=O)c[nH]1
[1]
  decrease of expression of Vimentin gene increased by BLM: 50.8%
  decrease of expression of αSMA gene increased by BLM: 52.5%
[2]
  reduction of level of hydroxyproline increased by CCl4: 26.2%
[2]; [10]
  reduction of hydroxyproline by NOV-JD-1 more than that by CHP: 17.9%
[3]
  reduction of expression of fibronectin protein increased by CCl4: 49.6%
[3]; [10]
  decrease of fibronectin protein by NOV-JD-1 compared to CHP: 35.9%
[4]
  reduction of expression of fibronectin increased by TGF-β: 22%
[5]; [11]
  reduction of IL-1β gene expression increased by CCl4: 46.3%
  reduction of IL-6 gene expression increased by CCl4: 45.0%
[5]; [12]
  reduction of Collagen I gene expression increased by CCl4: 26.1%
  reduction of Collagen III gene expression increased by CCl4: 23.6%
  reduction of α-SMA gene expression increased by CCl4: 40.7%
[5]; 35 mg/kg oral
  reduction of expression of α-SMA gene increased by CCl4: 36.9%
  decrease of gene expression of IL-1β increased by CCl4: 46.3%
  decrease of gene expression of IL-6 increased by CCl4: 45.0%
[5]; 35 mg/kg oral, relative to the CHP group (Example 5)
  reduction of α-SMA gene expression by NOV-JD-1 compared to CHP: 29.4%
[6]
  reduction of ALT activity increased by CCl4: 13.6%
[7]; 25 µM, TGF-β 5 ng/mL, 48 hours (Example 6)
  reduction of expression of Collagen I increased by TGF-β: 32%
[7]
  reduction of expression of fibronectin increased by TGF-β: 53.8%
[7]; relative to the CHP group (Example 7)
  reduction of fibronectin by NOV-JD-1 greater than that by CHP: 36.7%
[8]; 1 µM
  decrease of expression of fibronectin increased by TGF-β: 21.6%
[8]; 5 µM
  decrease of expression of fibronectin increased by TGF-β: 20.1%
[8]; 25 µM
  decrease of expression of fibronectin increased by TGF-β: 37.3%
[8]; 25 µM, relative to the CHP group (Example 3)
  reduction of fibronectin expression by NOV-JD-1 compared with CHP: 62.8%
[8]
  reduction of expression of fibronectin increased by TGF-β: 69.8%
[9]; 10 µM, TGF-β 2 ng/mL, 16 hours (Example 2, FIG. 2)
  decrease of expression of fibronectin increased by TGF-β: 48.2%
[9]; 10 µM, relative to the CHP group (Example 3)
  reduction of fibronectin expression by NOV-JD-1 compared with CHP: 61.3%
[9]
  reduction of expression of fibronectin increased by TGF-β: 70.6%

## O=C1N[C@@H](Cc2c[nH]cn2)C(=O)N2CCC[C@@H]12
[1]
  decrease of expression of Vimentin gene increased by BLM: 25.4%
  decrease of expression of αSMA gene increased by BLM: 33%
[2]
  reduction of level of hydroxyproline increased by CCl4: 10.1%
[3]
  reduction of expression of fibronectin protein increased by CCl4: 21.4%
[5]; 35 mg/kg oral
  reduction of expression of α-SMA gene increased by CCl4: 10.7%
  decrease of gene expression of IL-1β increased by CCl4: 13.4%
  decrease of gene expression of IL-6 increased by CCl4: 8.6%
[7]
  reduction of expression of fibronectin increased by TGF-β: 27%
[8]
  reduction of expression of fibronectin increased by TGF-β: 18.9%
[9]
  reduction of expression of fibronectin increased by TGF-β: 23.9%
